Source: patent publication US4447611A, “Benzo-fused and heterocyclic fused imidazole anti-ulcer agents” (American Home Products Corporation, priority 1982, dated 1984)

Amino acid sequences for entries named in this document (tags omitted).
UniProt P47747, whole entry: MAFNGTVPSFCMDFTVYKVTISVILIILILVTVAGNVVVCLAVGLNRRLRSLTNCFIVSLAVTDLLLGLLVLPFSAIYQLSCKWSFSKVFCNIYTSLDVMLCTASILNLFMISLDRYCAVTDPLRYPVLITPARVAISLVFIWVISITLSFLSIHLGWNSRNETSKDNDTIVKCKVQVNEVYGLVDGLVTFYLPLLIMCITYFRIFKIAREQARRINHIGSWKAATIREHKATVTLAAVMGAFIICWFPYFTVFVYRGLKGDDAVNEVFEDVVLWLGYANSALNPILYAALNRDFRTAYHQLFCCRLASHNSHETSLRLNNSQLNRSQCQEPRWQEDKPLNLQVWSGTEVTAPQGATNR

Target: T1, H2 histamine receptors (Cavia porcellus, UniProt P47747)
T1 construct: from tissue; host or cells: guinea pig right atrium (isolated, spontaneously beating)
Assay: guinea pig heart atrium test (histamine-induced positive chronotropic response in spontaneously beating right atrium)
Type: cell-based
Details: 32° C., pH 7.4, 30 minutes after addition of compound, vs histamine dose-response, read-out: pA2 Value (apparent dissociation constant of the H2 antagonist) (converted)
Method: The procedures for the results of these tests are presented at the end of the following examples, which will serve to illustrate the present invention.
The guinea pig heart atrium test is carried out as follows:
A guinea pig right atrium is suspended at 1 g. tension (isometric) in a thermostatically controlled (32° C.) tissue bath (10 ml) containing oxygenated (95% O2; 5% CO2) Krebs-Haenseleit buffer (pH 7.4). The tissue is allowed to stabilize over 1 hour. Individual contractions are recorded with a force-displacement transducer through a strain gauge coupler. A control dose-response curve to histamine in the above described tissue bath is obtained after which the tissue is washed 3 times and allowed to re-equilibrate to basal rate. The test compound is added to the tissue bath at the desired final concentration. Thirty minutes after addition of the compound, a fresh histamine dose response curve is again obtained. Then the response to histamine in the presence of antagonist is compared to the histamine control response. This procedure is repeated, using fresh tissues, for each concentration of antagonist tested. The result is expressed as the apparent dissociation constant (pA2) of the H2 antagonist as determined by standard procedures. Cimetidine is used as the standard for this test.

Compound `CN/C(=N/CCSCc1nc[nH]c1C)NC#N` [Cimetidine] has a Kb of 316 nM.
